## Ab-14 heavy chain CDR variants: yeast mating affinities

Data: MIT Lincoln Laboratory AlphaSeq set, Engelhart et al. 2022, doi:10.1038/s41597-022-01779-4, as distributed in FLAb.

All variants were tested on one target, the spike HR2 peptide PDVDLGDISGINAS (SARS-CoV-2).

Ab-14 is the parent antibody, in scFv form: VH, then three GGGGS repeats, then VL. The light chain is unchanged in all variants.
VH: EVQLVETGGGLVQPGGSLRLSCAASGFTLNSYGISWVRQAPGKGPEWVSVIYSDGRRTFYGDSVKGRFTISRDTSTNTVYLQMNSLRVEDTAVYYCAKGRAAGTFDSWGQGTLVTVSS
VL: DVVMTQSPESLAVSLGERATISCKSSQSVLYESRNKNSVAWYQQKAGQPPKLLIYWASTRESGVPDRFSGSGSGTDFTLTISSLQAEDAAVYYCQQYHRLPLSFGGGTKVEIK

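The starting antibody came from a phage panning campaign against this peptide. Library AAYL49 holds single substitutions and randomly drawn double and triple substitutions in the CDRs. In AlphaSeq, yeast of one mating type display the scFv and yeast of the other type display the target. Binding brings cells together so that they mate, and sequencing counts the barcode pairs among the diploids. The ratio of observed to expected reads was calibrated, replicate by replicate, on BCL2-family standards whose Kd was known from biolayer interferometry. The assay was run in three technical replicates.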

Positions count from residue 1 of the parent VH; S35C puts C in place of S. Numbers give log10(Kd / nM), so 0 is 1 nM and 3 is 1 µM. Smaller is tighter. Replicates are averaged; those with no signal do not enter the mean. "no signal" marks a missing value. The strain was present, yet no cells mated with the target were sequenced in any replicate, which points to weak or no binding. In this assay the parent's reference entry averaged 0.65; its copy inside this library read 4.11 (one replicate of three). Three control strains display no target. For library AAYL49, 15% of the pairings with them gave a signal, with a median of 4.06 and one signal in twenty below 2.83, so weak values seen in few replicates may be background.

| log10 Kd (nM), mean | seen in | changes |
|---|---|---|
| 3.48 | 1/3 | S35C+G55L |
| no signal | 0/3 | S35F+T58R+G61F |
| 2.13 | 3/3 | R56A+F59V |
| 3.47 | 1/3 | T58M+Y60S+A102F |
| no signal | 0/3 | G26H+G55E+V64H |
| no signal | 0/3 | G55H+R57M+R100M |
| 3.16 | 3/3 | F27R+N30W+G61D |
| no signal | 0/3 | R56F+G99P+R100G |
| 1.96 | 3/3 | S63L+R100S |
| 1.45 | 3/3 | R56N+D62N |
| no signal | 0/3 | N30F+Y32H+I34T |
| 4.05 | 1/3 | Y32E+I34D+S63Q |
| no signal | 0/3 | L29C+S31W+F59L |
| 3.84 | 2/3 | T28V+S31M+T104C |
| 3.23 | 2/3 | G55A+S63W+T104Q |
| 5.20 | 2/3 | F27A+F59Q+F105V |
| no signal | 0/3 | D54F+S63F+D106N |
| 0.77 | 3/3 | R56Q+F59V+S63A |
| no signal | 0/3 | D54Q+F59H+G103C |
| no signal | 0/3 | G33S+A102H |
| 0.99 | 3/3 | Y60V+G61T |
| 5.20 | 2/3 | N30Q+S31Q+F105T |
| 4.43 | 1/3 | A101N+G103V+F105C |
| no signal | 0/3 | V50P+G99N+A101K |
| 3.37 | 2/3 | I34N+Y52A+A101Q |
| 1.71 | 3/3 | S53H+A102P |
| no signal | 0/3 | I34F+V50T+S107R |
| 3.13 | 1/3 | G26Y+Y52N+R57M |
| no signal | 0/3 | G26A+R57F+G61L |
| 4.07 | 1/3 | G26L+I34V+G99L |
| no signal | 0/3 | Y32D+I34C+F59L |
| no signal | 0/3 | G55N+S63R |
| 5.40 | 1/3 | G26D+F59M+Y60R |
| 2.41 | 1/3 | G26A+Y60A+G61P |
| no signal | 0/3 | D54N+G103V |
| 2.35 | 3/3 | L29V+K65N+R100V |
| no signal | 0/3 | G33V+V50Y+G55A |
| no signal | 0/3 | F27P+S31Q+Y52C |
| 4.97 | 1/3 | F27S+L29P+V50F |
| no signal | 0/3 | S53F+G103E |
| 4.04 | 2/3 | L29G+I34W+R56Q |
| 3.60 | 1/3 | D54G+D62G+D106V |
| 3.23 | 3/3 | S35F+T58N+A101Y |
| 4.05 | 1/3 | R56M+G61Y+G99V |
| 2.76 | 1/3 | S53L+R56I+A101D |
| 4.48 | 1/3 | Y52C+V64L |
| no signal | 0/3 | S35G+Y60L+K65C |
| 5.07 | 2/3 | N30K+I34C+V50T |
| no signal | 0/3 | F27L+N30Y+I34V |